Data from patent publication US20250262222A1, “HETEROCYCLIC COMPOUNDS, COMPOSITIONS THEREOF, AND METHODS OF TREATMENT THEREWITH” (BeiGene Switzerland GmbH, priority 2022, published 2025).

Amino acid sequences for entries named in this document (tags omitted). A change or cut given only in a name is not applied to a line headed by its entry. Residues count along the entry.
UniProt P01116, 1-169 isoform 2 G12V limits assumed: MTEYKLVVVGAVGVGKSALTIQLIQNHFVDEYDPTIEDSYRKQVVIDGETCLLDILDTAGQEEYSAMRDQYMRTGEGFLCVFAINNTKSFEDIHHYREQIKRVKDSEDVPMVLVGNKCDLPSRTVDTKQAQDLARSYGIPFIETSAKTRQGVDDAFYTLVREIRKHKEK

Columns and labels:
[1] = target: GST-tagged GDP-loaded KRAS G12V (amino acids 1-169) (Homo sapiens, UniProt P01116, G12V); assay: KRAS G12V probe displacement assay; details: read-out: KRAS^G12V Probe Displacement Assay IC50; TR-FRET, 2 nM KRAS G12V, biotinylated probe 2
[2] = system: pERK1/2(THR202/TYR204) level in SW620 cell line; assay: KRAS G12V pERK assay; details: read-out: SW620 pERK IC50; SW620 cells, 2 hrs compound treatment, HTRF
Method: SW620 cell line was used in this study. Cells were maintained in RPMI 1640 supplemented with 10% fetal bovine serum (Thermo Fisher), 50 units/mL penicillin and streptomycin (Thermo Fisher) and kept at 37° C. in a humidified atmosphere of 5% CO2 in air. Cells were reinstated from frozen stocks that were laid down within 30 passages from the original cells purchased. 40000 cells per well were seeded into a 96-well plate and incubated overnight. Cells were treated with a 10-point dilution series. The final compound concentration is from 0 to 10 μM. After 2 hrs compound treatment, cells were lysed, and the pERK1/2(THR202/TYR204) level in the cell lysates was detected by HTRF kit (Cisbio). In brief, a total of 16 μL of cell lysate from each well of a 96-well plate was transferred to a 384-well white assay plate. Lysate from each well was incubated with 2 μL of Eu3+-cryptate (donor) labeled anti-phospho-ERK1/2 and 2 μL of D2 (acceptor) labeled anti-phospho-ERK1/2 antibodies (Cisbio) overnight in dark at room temperature. When donor and acceptor are in close proximity, excitation of the donor with laser triggers a Fluorescence Resonance Energy Transfer (FRET) towards the acceptor, which in turn fluoresces at 655 nm wavelength. FRET signals were measured using a PHERAstar FSX reader (BMG Labtech). […]

[3] = target: GST-tagged GDP-loaded WT KRAS (amino acids 1-169) (Homo sapiens, UniProt P01116); assay: KRAS WT probe displacement assay (run with KRAS G12V, Table 2); details: read-out: KRAS^WT Probe Displacement Assay IC50, TR-FRET, 3 nM WT KRAS, biotinylated probe 1

Molecule `Nc1cc(Cl)c(C(F)(F)F)c(-c2nc3c4c(nc(OC[C@@]56CCCN5C[C@H](F)C6)nc4c2F)N2CCCOC[C@H]2CO3)c1` has an IC50 [1] of 0.88 nM, an IC50 [2] of 40 nM and an IC50 [3] of 0.65 nM.
